Experiment: xn = mol fraction of the nth substance listed
Details: 100 kPa, x1 = 0.0001802

CC(=O)[O-].CCC[N+](CCC)(CCC)CCC + CCCCCCCCCCCCOS(=O)(=O)[O-].[Na+] + O
viscosity [mPa·s]
Details	293.15 K	298.15 K	303.15 K
x2 = 1.81e-06	1.002	0.896	0.787
x2 = 3.61e-06	1.004	0.898	0.789
x2 = 5.42e-06	1.005	0.902	0.792
x2 = 7.22e-06	1.006	0.902	0.795
x2 = 9.03e-06	1.007	0.903	0.797
x2 = 1.084e-05	1.007	0.903	0.8
x2 = 1.264e-05	1.007	0.903	0.801
x2 = 1.445e-05	1.007	0.903	0.803
x2 = 1.625e-05	1.008	0.904	0.805
x2 = 1.806e-05	1.008	0.904	0.806
x2 = 1.987e-05	1.008	0.904	0.806
x2 = 2.167e-05	1.008	0.904	0.806
x2 = 2.348e-05	1.008	0.905	0.806
x2 = 2.528e-05	1.008	0.905	0.806
x2 = 2.709e-05	1.009	0.905	0.807

— the CheMixHub ionic liquid set
